Target: Dipeptidyl peptidase 4 (Rattus norvegicus, UniProt P14740)
Test: Inhibition of DPP4 in rat plasma by fluorescence assay
Type: cell-free

Sequences of proteins named here, by UniProt entry; tags and fusion partners are left off. A change or cut given only in a name is not applied to a line headed by its entry.
UniProt P14740: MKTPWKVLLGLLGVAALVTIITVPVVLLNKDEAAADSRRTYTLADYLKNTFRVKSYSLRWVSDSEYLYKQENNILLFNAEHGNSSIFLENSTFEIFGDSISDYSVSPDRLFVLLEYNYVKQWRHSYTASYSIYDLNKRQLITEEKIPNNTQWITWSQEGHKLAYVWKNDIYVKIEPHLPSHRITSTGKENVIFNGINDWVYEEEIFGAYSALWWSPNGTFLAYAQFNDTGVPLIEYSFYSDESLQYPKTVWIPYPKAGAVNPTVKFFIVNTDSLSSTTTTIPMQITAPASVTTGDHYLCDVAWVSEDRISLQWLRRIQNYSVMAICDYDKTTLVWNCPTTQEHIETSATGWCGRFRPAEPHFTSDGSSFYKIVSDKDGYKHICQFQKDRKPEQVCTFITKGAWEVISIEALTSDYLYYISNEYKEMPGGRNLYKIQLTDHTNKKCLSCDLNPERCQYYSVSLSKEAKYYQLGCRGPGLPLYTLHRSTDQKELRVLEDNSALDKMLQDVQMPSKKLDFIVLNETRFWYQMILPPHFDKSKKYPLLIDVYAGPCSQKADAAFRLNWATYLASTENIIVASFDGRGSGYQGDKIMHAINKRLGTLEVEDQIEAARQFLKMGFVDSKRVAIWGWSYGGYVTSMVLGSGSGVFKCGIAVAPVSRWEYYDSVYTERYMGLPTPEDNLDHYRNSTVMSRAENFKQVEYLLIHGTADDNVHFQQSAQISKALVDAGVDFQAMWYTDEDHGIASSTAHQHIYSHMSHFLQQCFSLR

IC50: 2.2 nM
Structure (SMILES): O=C([C@@H]1C[C@H](N2CCN(c3ccc([N+](=O)[O-])cc3)CC2)CN1)N1CCSC1

Source: ChEMBL document CHEMBL1139160 (Bioorg Med Chem Lett, 2007)
